# The lowest values were mostly taken out for another list; the other results follow.
# Target: T1, Transcription intermediary factor 1-alpha (Homo sapiens) (UniProt O15164)
# T1 sequence (whole entry): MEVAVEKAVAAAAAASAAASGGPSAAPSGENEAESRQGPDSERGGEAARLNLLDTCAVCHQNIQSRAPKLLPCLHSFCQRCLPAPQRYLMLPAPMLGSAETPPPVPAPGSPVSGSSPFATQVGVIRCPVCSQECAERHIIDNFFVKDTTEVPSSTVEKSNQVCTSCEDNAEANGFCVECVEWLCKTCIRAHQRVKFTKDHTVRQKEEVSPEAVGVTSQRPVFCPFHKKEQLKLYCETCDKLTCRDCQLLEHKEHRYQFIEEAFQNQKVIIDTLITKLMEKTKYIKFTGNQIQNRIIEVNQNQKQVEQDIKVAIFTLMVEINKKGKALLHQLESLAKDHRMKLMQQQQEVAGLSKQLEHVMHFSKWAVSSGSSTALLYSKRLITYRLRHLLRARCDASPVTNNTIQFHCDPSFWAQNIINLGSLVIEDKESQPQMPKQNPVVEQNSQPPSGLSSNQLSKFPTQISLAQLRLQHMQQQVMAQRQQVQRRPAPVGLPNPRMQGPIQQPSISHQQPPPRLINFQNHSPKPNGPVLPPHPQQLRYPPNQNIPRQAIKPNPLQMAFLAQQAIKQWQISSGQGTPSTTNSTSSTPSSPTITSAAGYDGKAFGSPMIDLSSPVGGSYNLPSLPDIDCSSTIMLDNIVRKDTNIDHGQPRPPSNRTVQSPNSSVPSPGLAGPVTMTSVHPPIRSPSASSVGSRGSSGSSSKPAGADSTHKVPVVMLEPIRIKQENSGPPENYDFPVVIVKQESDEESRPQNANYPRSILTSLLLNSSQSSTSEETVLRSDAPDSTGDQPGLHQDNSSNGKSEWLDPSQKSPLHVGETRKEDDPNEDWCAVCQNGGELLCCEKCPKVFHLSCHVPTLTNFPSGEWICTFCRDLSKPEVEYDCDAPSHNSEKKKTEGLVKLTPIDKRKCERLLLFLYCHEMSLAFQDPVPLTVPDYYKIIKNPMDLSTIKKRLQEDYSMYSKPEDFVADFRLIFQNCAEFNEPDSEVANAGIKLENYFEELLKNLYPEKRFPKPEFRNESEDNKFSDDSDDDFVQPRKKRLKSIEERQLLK
# Conditions: Compound concentration 20.0 uM
smiles,measurement,value
C[C@]12CC[C@@H]3c4ccc(O)cc4C[C@@H](CCCCCCCCC[S+]([O-])CCCC(F)(F)C(F)(F)F)[C@H]3[C@@H]1CC[C@@H]2O (stereo partly specified),ΔTm,1.64 °C

# Source: ChEMBL document CHEMBL5724796, “Tm Shift (DSF) assay results for EUbOPEN Chemogenomics Library” (2024)
